Assay results: patent publication US5814666A, “Encapsulated and non-encapsulated nitric oxide generators used as antimicrobial agents” (The United States as represented by the Department of …, priority 1995, dated 1998)

How the values were obtained:
[1] = tested on: P. falciparum clone CDC/Sierra Leone I (D6); experiment: Anti-malaria in vitro screen, P. falciparum clone D6; conditions: in words
[2] = tested on: P. falciparum clone CDC/Indochina III (W2); experiment: Anti-malaria in vitro screen, P. falciparum clone W2; conditions: in words

SMILES | relative potency in D6 [1] | relative potency in W2 [2]
CCN(CC)[N+]([O-])=NOCOC(C)=O [acetoxy-DEA/NO] | substantially more potent than SPER/NO and DETA/NO in D6 | 
NCCN(CCN)[N+]([O-])=NO [DETA/NO] |  | substantially more potent than SPER/NO and acetoxy-DEA/NO in W2
